Only a part of the results on these compounds is given; other tests are left out.
System: 15-LO
Assay: 15-HETE formation in intact PMNL
Conditions: 20 µM AA, 2.5 µM A23187, (95% CI), n = 3–6

For N#CC(C#N)=Cc1ccccc1, the “IC50 for inhibition of 15-HETE formation, PMNL” value was “no inhibition”.
